Chains of the proteins cited; added tags and fusions are not shown. Lines headed by an entry give the natural chain unless they say otherwise; changes in a name come on top.
UniProt P17752: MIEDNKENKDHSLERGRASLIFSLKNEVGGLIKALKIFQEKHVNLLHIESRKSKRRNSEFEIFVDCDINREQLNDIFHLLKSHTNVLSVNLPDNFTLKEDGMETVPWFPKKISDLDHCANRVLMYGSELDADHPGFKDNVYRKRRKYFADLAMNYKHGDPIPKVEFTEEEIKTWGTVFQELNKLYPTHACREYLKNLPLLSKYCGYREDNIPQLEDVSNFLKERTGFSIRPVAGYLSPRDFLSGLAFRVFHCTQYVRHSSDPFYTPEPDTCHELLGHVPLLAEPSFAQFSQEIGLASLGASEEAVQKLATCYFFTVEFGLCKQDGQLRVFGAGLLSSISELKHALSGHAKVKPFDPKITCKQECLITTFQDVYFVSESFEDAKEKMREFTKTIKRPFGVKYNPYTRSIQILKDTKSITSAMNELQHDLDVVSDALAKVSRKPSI

The compounds below were run against recombinant human TPH1 (Swiss-Prot: P17752) (Homo sapiens (Human), UniProt P17752) (assay: In vitro enzyme activity assay, fluorescence-based, TPH1 inhibition). Settings: read-out: IC50 TPH1 (μM) mean; recombinant human TPH1, 40 μM tryptophan, pH 7.0, mean of sample triplicates.
`CCn1c(=O)[nH]c(=O)c2c1nc(Cc1cn3c(n1)CCCC3)n2Cc1ccc(N2CCCC2=O)cc1` [Ex. 36, 3-ethyl-7-(4-(2-oxopyrrolidin-1-yl)benzyl)-8-((5,6,7,8-tetrahydroimidazo[1,2-a]pyridin-2-yl)methyl)-3,7-dihydro-1H-purine-2,6-dione] was tested, and the IC50 was 0.247 µM. For `CCn1c(=O)[nH]c(=O)c2c1nc(Cc1cn3c(n1)CCCC3)n2Cc1ccc(N2CC(F)(F)C2)cc1` [Ex. 37, 7-(4-(3,3-difluoroazetidin-1-yl)benzyl)-3-ethyl-8-((5,6,7,8-tetrahydroimidazo[1,2-a]pyridin-2-yl)methyl)-3,7-dihydro-1H-purine-2,6-dione], the IC50 was 0.273 µM. `CCn1c(=O)[nH]c(=O)c2c1nc(Cc1cn3c(n1)CCCC3)n2Cc1ccc(N2CC(OC)C2)cc1` [Ex. 38, 3-ethyl-7-(4-(3-methoxyazetidin-1-yl)benzyl)-8-((5,6,7,8-tetrahydroimidazo[1,2-a]pyridin-2-yl)methyl)-3,7-dihydro-1H-purine-2,6-dione] gave an IC50 of 0.22 µM. Work on `CCn1c(=O)[nH]c(=O)c2c1nc(Cc1cn3c(n1)CCCC3)n2Cc1ccc(-c2noc(C)n2)cc1` [Ex. 39, 3-ethyl-7-(4-(5-methyl-1,2,4-oxadiazol-3-yl)benzyl)-8-((5,6,7,8-tetrahydroimidazo[1,2-a]pyridin-2-yl)methyl)-3,7-dihydro-1H-purine-26-dione] yielded an IC50 of 0.179 µM.

From patent publication US10683309B2, “Xanthine derivatives, their use as a medicament, and pharmaceutical preparations comprising the same” (MAX-DELBRÜCK-CENTRUM FÜR MOLEKULARE MEDIZIN, priority 2016, dated 2020)
